One may read the Kd as the constant that tells how readily two partners part at equilibrium. A low value points to higher affinity.

For experiment [1], the target named is T1, Cysteine synthase (Haemophilus influenzae (strain ATCC 51907 / DSM 11121 / KW20 / Rd)) (UniProt P45040).
T1 sequence (whole entry): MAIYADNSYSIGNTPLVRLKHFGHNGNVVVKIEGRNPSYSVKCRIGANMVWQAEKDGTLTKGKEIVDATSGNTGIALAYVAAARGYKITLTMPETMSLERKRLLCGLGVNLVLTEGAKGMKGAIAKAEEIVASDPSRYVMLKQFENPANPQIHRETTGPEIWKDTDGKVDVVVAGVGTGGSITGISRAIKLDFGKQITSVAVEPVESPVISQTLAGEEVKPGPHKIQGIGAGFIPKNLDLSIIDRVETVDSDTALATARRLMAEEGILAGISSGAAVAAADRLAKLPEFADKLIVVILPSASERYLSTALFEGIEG
The experiment can be described thus: (§1) Binding affinity to Haemophilus influenzae O-acetylserine sulfhydrylase expressed in Escherichia coli BL21 (DE3) by fluorescence emission spectra analysis.

A further experiment addresses T2, Cysteine synthase (Haemophilus influenzae (strain ATCC 51907 / DSM 11121 / KW20 / Rd), UniProt P45040).
T2 sequence (P45040 whole entry): T1 sequence (whole entry)
The description is as §1.

Take `CC[C@H](C)[C@H](NC(=O)[C@H](Cc1ccccc1)NC(=O)[C@H](Cc1ccc(O)cc1)NC(=O)[C@H](CC(N)=O)NC(=O)[C@@H](N)CCSC)C(=O)O`: the Kdiss in experiment [1] was 191 µM. The compound also gave a Kd at Cysteine synthase of 191 µM. At Cysteine synthase, `CC[C@H](C)[C@H](NC(=O)[C@H](CC(=O)O)NC(=O)[C@H](Cc1ccc(O)cc1)NC(=O)[C@H](CC(N)=O)NC(=O)[C@@H](N)CCSC)C(=O)O` showed a Kd of 25.7 µM.

`CC[C@H](C)[C@H](NC(=O)CNC(=O)[C@H](CCCCN)NC(=O)[C@H](CC(N)=O)NC(=O)[C@@H](N)CCSC)C(=O)O` registered a Kdiss in experiment [1] of 15200 µM. Also, at Cysteine synthase, the dissociation constant Kd was 15100 µM. In turn, `CC[C@H](C)[C@H](NC(=O)[C@@H](NC(=O)[C@H](CCCCN)NC(=O)[C@H](CC(N)=O)NC(=O)[C@@H](N)CCSC)C(C)C)C(=O)O` registered a Kdiss in experiment [1] of 13300 µM. The compound further showed a Kd on Cysteine synthase of 13200 µM. In the same order, the values of `CC[C@H](C)[C@H](NC(=O)[C@H](Cc1cnc[nH]1)NC(=O)[C@@H]1CCCN1C(=O)[C@H](CC(N)=O)NC(=O)[C@@H](N)CCSC)C(=O)O` are 7100 µM and 7080 µM.

On Cysteine synthase, `CC[C@H](C)[C@H](NC(=O)[C@H](CC(N)=O)NC(=O)[C@H](Cc1c[nH]c2ccccc12)NC(=O)[C@H](CC(N)=O)NC(=O)[C@@H](N)CCSC)C(=O)O` gave a Kd of 25.1 µM. Turning to `CC[C@H](C)[C@H](NC(=O)[C@@H](NC(=O)[C@H](CCC(=O)O)NC(=O)[C@H](CC(N)=O)NC(=O)[C@@H](N)CCSC)[C@@H](C)O)C(=O)O`, the Kdiss in experiment [1] was 3420 µM. In addition, the dissociation constant Kd at Cysteine synthase was 3390 µM. On Cysteine synthase, `CC[C@H](C)[C@H](NC(=O)[C@H](CC(N)=O)NC(=O)[C@H](CCC(=O)O)NC(=O)[C@H](CC(N)=O)NC(=O)[C@@H](N)CCSC)C(=O)O` showed a Kd of 38.9 µM.

The values above are taken from ChEMBL document CHEMBL1156774, “Design of O-acetylserine sulfhydrylase inhibitors by mimicking nature” (J Med Chem, 2010).
